Measurements reported in ChEMBL document CHEMBL1155799 (Bioorg Med Chem, 2008).
pKi: −log10 of the molar value.

The chains behind the UniProt entries cited, without tags or fusion partners. Where a name states a change or a piece, a line headed by the entry shows the natural chain unless it says otherwise.
UniProt P28335: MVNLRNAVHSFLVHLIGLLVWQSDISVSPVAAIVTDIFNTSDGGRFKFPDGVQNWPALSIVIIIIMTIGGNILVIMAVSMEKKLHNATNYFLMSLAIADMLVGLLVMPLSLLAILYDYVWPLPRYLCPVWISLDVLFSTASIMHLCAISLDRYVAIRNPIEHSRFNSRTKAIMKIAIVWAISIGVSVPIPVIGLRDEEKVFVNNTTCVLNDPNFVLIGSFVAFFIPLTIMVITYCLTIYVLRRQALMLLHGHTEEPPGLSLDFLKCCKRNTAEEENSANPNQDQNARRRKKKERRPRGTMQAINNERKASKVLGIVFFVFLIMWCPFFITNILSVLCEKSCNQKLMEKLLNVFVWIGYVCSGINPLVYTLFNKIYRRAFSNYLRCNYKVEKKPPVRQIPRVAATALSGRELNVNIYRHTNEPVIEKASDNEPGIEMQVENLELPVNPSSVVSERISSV
UniProt P08908, whole entry: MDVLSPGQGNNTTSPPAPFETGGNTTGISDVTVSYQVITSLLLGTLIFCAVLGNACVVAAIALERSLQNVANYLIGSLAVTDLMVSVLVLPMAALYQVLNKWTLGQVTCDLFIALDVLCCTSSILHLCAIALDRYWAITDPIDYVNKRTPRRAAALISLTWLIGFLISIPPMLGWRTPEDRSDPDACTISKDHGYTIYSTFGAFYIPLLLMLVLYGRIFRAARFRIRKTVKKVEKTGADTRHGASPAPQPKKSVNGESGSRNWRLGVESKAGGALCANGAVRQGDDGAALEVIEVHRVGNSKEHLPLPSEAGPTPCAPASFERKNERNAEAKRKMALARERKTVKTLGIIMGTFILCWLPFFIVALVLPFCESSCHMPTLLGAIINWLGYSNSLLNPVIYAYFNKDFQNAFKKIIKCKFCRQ
UniProt P28223, whole entry: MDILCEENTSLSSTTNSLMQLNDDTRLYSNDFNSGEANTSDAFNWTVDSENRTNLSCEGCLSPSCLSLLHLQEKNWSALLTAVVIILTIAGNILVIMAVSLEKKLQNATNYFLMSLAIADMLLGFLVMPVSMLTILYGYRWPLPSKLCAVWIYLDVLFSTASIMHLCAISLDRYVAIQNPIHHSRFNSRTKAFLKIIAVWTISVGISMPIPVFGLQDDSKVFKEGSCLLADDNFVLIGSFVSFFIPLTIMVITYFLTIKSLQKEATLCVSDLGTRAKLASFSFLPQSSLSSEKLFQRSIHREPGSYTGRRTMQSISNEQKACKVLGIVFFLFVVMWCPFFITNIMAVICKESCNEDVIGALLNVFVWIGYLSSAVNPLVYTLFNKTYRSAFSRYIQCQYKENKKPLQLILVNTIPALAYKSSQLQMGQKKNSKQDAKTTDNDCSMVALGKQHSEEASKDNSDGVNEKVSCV

Assays:
[1] = molecular target: 5-hydroxytryptamine receptor 2C (Homo sapiens, UniProt P28335)
[2] = molecular target: 5-hydroxytryptamine receptor 1A (Homo sapiens, UniProt P08908)
[3] = molecular target: 5-hydroxytryptamine receptor 2A (Homo sapiens, UniProt P28223)

Q: What does the source list for `O=C(CCCN1C2CCC1CN(c1ccc(Cl)cc1)CC2)c1ccc(F)cc1` (stereo not drawn)?
A: pKi [1]: 5.45; pKi [2]: 5.63; pKi [3]: 6.71
